Assay results reported in patent EP4282435A1, “FORMULATIONS OF ACTIVE PHARMACEUTICAL INGREDIENTS AND EXCIPIENTS IN ICELLS VIA HYDROPHOBIC ION PAIRING” (Danmarks Tekniske Universitet, priority 2022, dated 2023).

Assay: Solubility of ICG HIP complexes in ICell (visual)
Settings: ICG or its HIP complex with the named co-ion in SuBen:GTO:EtOH (60:25:15) ICell, about 2.5 mg ICG per 1 g ICell
Method: For each co-ion, the chloroform phase was isolated and transferred to new glass vials. Chloroform was dried under a gentle flow of nitrogen.
1 g of ICell was added to each vial containing the previously isolated ICG HIP complexes. In addition, 1 g of ICell was added to a vial containing 2.5 mg of native ICG.

Structure (SMILES): CC[N+](CC)(CC)CC.[Br-] [Tetraethyl ammonium bromide]
- solubility in ICell: easily solubilized
